Values quoted from earlier work, collected in patent EP3677259A1, “USE OF ARACHIDONYL TRIFLUOROMETHYL KETONE” (Mosaiques Diagnostics And Therapeutics AG, priority 2019, dated 2020).

Target: T1, Ca2+-dependent cytosolic cPLA2 (Homo sapiens, UniProt P47712)
T1 sequence (P47712 1-749): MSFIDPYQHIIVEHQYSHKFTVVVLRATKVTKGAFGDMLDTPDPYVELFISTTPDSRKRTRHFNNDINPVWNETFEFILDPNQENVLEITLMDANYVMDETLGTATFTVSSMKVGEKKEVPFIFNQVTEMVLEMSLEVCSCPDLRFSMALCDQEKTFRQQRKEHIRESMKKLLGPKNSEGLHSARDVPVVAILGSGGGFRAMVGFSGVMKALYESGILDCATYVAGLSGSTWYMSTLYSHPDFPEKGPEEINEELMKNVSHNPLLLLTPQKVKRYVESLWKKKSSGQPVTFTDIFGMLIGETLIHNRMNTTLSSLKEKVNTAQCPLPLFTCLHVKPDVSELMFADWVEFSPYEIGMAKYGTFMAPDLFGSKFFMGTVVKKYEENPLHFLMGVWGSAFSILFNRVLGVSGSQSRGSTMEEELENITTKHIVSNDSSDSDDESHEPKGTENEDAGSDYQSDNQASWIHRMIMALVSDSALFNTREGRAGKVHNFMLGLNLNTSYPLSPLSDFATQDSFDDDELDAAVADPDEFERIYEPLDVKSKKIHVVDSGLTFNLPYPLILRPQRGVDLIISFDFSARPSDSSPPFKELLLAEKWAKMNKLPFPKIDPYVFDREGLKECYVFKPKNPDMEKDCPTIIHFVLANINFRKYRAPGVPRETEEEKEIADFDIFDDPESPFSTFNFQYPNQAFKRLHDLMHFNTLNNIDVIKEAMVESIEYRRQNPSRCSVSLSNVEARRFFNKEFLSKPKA
Conditions: cited from earlier work

**Q.** With “Palmityl trifluoromethylketone [PACOCF3]” as the substance, how does the pIC50 read?
**A.** 4.35

pIC50: −log10 of the molar value.
